From PubChem BioAssay AID1745845 (National Center for Advancing Translational Sciences (NCATS), 2022)
Only a part is listed here, and it is no random draw. Records with an inconclusive call do not appear. Entries that show only a call come without a potency. The source made the active and inactive calls. The call rests on the fitted dose curve; in most records, active means well fitted inhibition curve with a large enough effect; inconclusive means small, poorly fitted or top-dose-only effect; inactive means no such curve, though single readings can be large or run the other way.

Test: Primary qHTS for Inhibitors of ATXN expression; further: nearly all actives have a fitted effect of over 55% in size
Settings: HEK-293 ATXN2-luciferase reporter, luminescence, 24 h; series mostly up to 57 µM
Potency means the concentration at half of the fitted maximal effect.

SMILES	activity change, negative = inhibition	Potency
NC(=O)Nc1ccc([As](=O)(O)O)cc1	inactive	
CN(C(=O)Cc1ccc(Cl)c(Cl)c1)[C@H]1CC[C@@]2(CCCO2)C[C@@H]1N1CCCC1	inactive	
O=[N+]([O-])c1ccc2c(c1)nnn2O	inactive	
CCOP1(=S)c2c(C)nn(CCC#N)c2N=C(c2ccc(F)cc2)N1C (stereo not drawn)	inactive	
CN(C(=O)Cc1ccccc1)[C@@H]1CC[C@]2(CCCO2)C[C@H]1N1CCCC1	inactive	
N#CCCN(C(=O)COC(=O)C(O)(c1ccccc1)c1ccccc1)c1ccc(F)cc1	inactive	
CS(=O)(=O)c1cc([N+](=O)[O-])c2no[n+]([O-])c2c1	inactive	
O=P(Nc1nccs1)(c1ccccc1)c1nc2ccccc2s1 (stereo not drawn)	inactive	
CCOP1(=S)c2c(C)nn(CCC#N)c2N=C(c2ccccc2F)N1C (stereo not drawn)	inactive	
Nc1ccccc1[As](=O)(O)c1ccccc1	inactive	
CCn1c(=O)n([C@@H]2CCN(CC3CCCCCCC3)C[C@@H]2CO)c2ccccc21	inactive	
O=C(O)COc1ccc([As](=O)(O)O)cc1[N+](=O)[O-]	inactive	
Cc1ccc(NCCc2c([N+](=O)[O-])cc([N+](=O)[O-])cc2[N+](=O)[O-])cc1	inactive	
CCOP(=O)(Nc1cccc2ccccc12)OCC	inactive	
COc1cc(C2NCCC3(OCCO3)C2(C)C)cc(OC)c1OC (stereo not drawn)	inactive	
CS(=O)(=O)c1ccc(Cl)c(NC(=O)COC(=O)C(O)(c2ccccc2)c2ccccc2)c1	inactive	
COc1cc(C(=O)NCC2(N3CCOCC3)CCCCC2)cc(Cl)c1OC(C)C	inactive	
O=[As](O)(O)c1cccnc1	inactive	
O=C(OC1CN2CCC1CC2)c1ccc(Cl)cc1 (stereo not drawn)	inactive	

SMILES	activity change, negative = inhibition	Potency
O=[As](O)(c1cccc(O)c1)c1cccc(O)c1	inactive	
Cc1cccc(OCC(=O)OC2CN3CCC2CC3)c1 (stereo not drawn)	inactive	
COc1ccccc1CNC(=O)COC(=O)C(O)(c1ccccc1)c1ccccc1	inactive	
CC1(CBr)Cn2c(nc3ccccc3c2=O)S1 (stereo not drawn)	inactive	
CC(C)/C=N\N=C(\N)N[N+](=O)[O-]	inactive	
CN(C(=O)Cc1ccc(Cl)c(Cl)c1)[C@@H]1CCCC[C@H]1N1CCCC1	inactive	
CN(CCCl)Cc1cc(Cl)c(NC2=NCCN2)c(Cl)c1	inactive	
CCOP(=O)(NC(=NC(C)c1ccccc1)NC(C)c1ccccc1)OCC (stereo not drawn)	inactive	
O=P1(Nc2ccccn2)COc2ccccc2OC1	inactive	
CCC1=CC2Cc3nc4ccc(Cl)cc4c(N)c3C(C1)C2 (stereo not drawn)		active: 28.2 µM
O=P1(Nc2ncccn2)COc2ccccc2OC1	inactive	
Cc1ccc(S(=O)(=O)N(CCCN)CCCc2c(C)nc(N)[nH]c2=O)cc1	inactive	
O=P1(Nc2ccc(Br)cn2)COc2ccccc2OC1	inactive	
Cc1ccc(OCC(=O)OC2CN3CCC2CC3)cc1 (stereo not drawn)	inactive	
CC1CCC(C(C)C)C(OP(=O)(Nc2ccccn2)c2ccccc2)C1 (stereo not drawn)	inactive	
Cc1nn(-c2ccccc2)c2c1P(=O)(N1CCOCC1)N(C)C(c1ccccc1)=N2 (stereo not drawn)	inactive	
CCCC1OP(=O)(Nc2ccccc2)OCC1CC (stereo not drawn)	inactive	
O=C(/C=C/c1ccccc1)OC1CN2CCC1CC2 (stereo not drawn)	inactive	
CN(C)C1(CNC(=O)c2ccc(S(C)(=O)=O)cc2)CCCCC1	inactive	
